# In patent US20100028414A1, “COMBINATION OF TYROSINE KINASE INHIBITOR AND HER-2/NEU FOR CANCER THERAPY” (priority 2004, published 2010):
# Key:
# Assay type in all cases: cell-based, human
# [1] = system: phospho-Akt; experiment: Western blot of activated phospho-Akt, BT474 cells; conditions: 72 hr, FIG. 13
# Method: (§1) To assess the levels of various proteins in cells, whole cell extracts were prepared by scraping cells off petri dishes, washing the cell pellet twice in phosphate buffered saline (PBS), and then resuspending the pellet in two-packed-cell volumes of RIPA buffer(150 mM NaCl, 50 mM Tris-HCl, pH 7.5, 0.25% (w/v) deoxycholate, 1% NP-40, 5 mM sodium orthovanadate, 2 mM sodium fluoride, and a protease inhibitor cocktail). Protein concentrations were determined using a modification of the Bradford method (Bio-Rad Laboratory). […] The immunoprecipitates were separated by 4-15% gradient SDS-polyacrylamide […] gel electrophoresis (SDS-PAGE), and ErbB receptors were detected by Western Blot with anti-ErbB receptor antibodies.
# (§2) Steady state levels of Survivin, total ErbB2, phosphorylated ErbB2 (pErbB2 or pTyr), total Erk1/2 , activated Erk1/2 (p-Erk), total pErbB3, activated pErbB3 (pErbB3), total AKT protein and activated Akt (p-Akt) protein were assessed by Western blot. Levels of pErbB2 were assessed using an antibody that bound to multiple tyrosine-phosphorylated forms of ErbB2 (i.e., the antibody was not phosphorylation-site specific). […]
# (§3) For Western blot, equal amounts of proteins were resolved by either 7.5% or 4-15% gradient SDS polyacrylamide gel electrophoresis under reducing conditions. […] Efficiency and equal loading of proteins was evaluated by Ponceau S staining. […]
# [2] = system: phospho-Erk1/2; experiment: Western blot of activated phospho-Erk1/2, BT474 cells; conditions: 72 hr, FIG. 13
# Method: as §1, §2, §3
# [3] = system: survivin; experiment: Western blot of steady state survivin protein, BT474 cells; conditions: lapatinib 0.1 μM, pAb 100 μg/ml, trastuzumab 10 μg/ml, 72 hr, FIG. 12A bottom
# Method: as §1, §2, §3
# [4] = system: BT474 cells; experiment: Apoptosis by annexin V staining and flow cytometry, BT474; conditions: lapatinib 0.1 μM, pAb 100 μg/ml, trastuzumab 10 μg/ml, 72 hr, FIG. 12A top
# Method: After harvesting the cells with trypsin-EDTA, 5000 cells in 50 μl were sampled on 96-well microplates. The cells were stained directly in the microplate with Annexin V-PE and Nexin 7-AAD in 1× Nexin Buffer in a 200 μl final reaction volume. After incubating for 20 minutes at room temperature, the reaction samples were ready to be acquired in the Guava PCA-96-system (Guava Technology, Inc., Hayward, Calif. USA).
# 7-AAD binds to cellular nuclear material after cellular membranes break down in late apoptosis. Annexin-V staining indicates early apoptotic changes that precede the loss of cellular membrane integrity. Use of Annexin-V in conjunction with 7-amino-actinomycin D (7-AAD) thus can identify both early and late apoptotic cells.
# Flow cytometry results were graphed as dot plot results (not shown) with annexin V on the X-axis and 7-AAD on the Y-axis. Low annexin V and low 7-AAD represented viable cells; low annexin V and high 7-AAD indicated nuclear debris; cells with high annexin V staining indicated apoptotic cells. The graphs provided in FIGS. 12A, 12C, 15A, and 16 show the percentage of apoptotic cells (high annexin V) compared to total cells.
substance,measurement,setting,value
trastuzumab: humanized monoclonal antibody to HER-2/neu,steady state levels of pAkt,[1],"inhibited by trastuzumab, although less than that observed with pAb"
same,steady state levels of pErk1/2,[2],"inhibited by trastuzumab, although less than that observed with pAb"
same,survivin protein expression,[3],little effect on survivin
same,apoptosis,[4],slight increase in apoptosis
